# Reference: PubChem BioAssay AID720708 (National Center for Advancing Translational Sciences (NCATS), 2013)
# By UniProt entry, the sequences of proteins in these tests, tags left out.
# UniProt Q8WZA2, whole entry: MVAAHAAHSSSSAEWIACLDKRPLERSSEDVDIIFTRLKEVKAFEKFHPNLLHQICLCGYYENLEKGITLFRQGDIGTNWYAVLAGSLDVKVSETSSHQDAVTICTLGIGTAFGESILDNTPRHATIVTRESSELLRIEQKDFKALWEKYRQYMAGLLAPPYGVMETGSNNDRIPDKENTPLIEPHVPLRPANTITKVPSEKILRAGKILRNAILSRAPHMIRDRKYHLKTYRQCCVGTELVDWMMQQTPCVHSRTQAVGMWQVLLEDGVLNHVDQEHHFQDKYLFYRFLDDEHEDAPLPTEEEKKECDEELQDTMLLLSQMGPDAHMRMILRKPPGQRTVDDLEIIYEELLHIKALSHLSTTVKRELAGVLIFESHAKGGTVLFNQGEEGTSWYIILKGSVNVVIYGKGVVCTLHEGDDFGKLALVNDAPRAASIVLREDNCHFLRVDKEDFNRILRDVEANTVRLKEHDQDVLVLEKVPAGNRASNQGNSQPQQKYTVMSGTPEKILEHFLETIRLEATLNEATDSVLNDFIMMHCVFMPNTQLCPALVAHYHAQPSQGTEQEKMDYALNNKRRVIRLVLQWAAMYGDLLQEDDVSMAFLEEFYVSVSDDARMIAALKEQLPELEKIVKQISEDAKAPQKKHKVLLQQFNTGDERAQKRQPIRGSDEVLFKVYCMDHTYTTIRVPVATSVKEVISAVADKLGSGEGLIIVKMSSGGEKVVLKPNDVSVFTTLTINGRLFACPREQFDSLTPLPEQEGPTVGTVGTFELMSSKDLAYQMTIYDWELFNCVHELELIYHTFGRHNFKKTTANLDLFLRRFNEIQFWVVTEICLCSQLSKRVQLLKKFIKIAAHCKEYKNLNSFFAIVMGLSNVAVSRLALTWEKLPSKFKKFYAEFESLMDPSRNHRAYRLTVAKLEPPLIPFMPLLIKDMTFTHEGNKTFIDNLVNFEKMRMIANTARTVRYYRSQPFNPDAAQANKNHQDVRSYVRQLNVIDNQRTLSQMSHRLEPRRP
# The list shows a part of the results, in another mix than the full data. Some structures show a salt or complex split into parts, the way the source records it. Calls of active or inactive are those of the source. Calls follow the shape of the dose curve; as a rule, active = well fitted inhibition curve with a large enough effect; inconclusive = small, poorly fitted or top-dose-only effect; inactive = no such curve, though single readings can be large or run the other way.
# Target: Rap guanine nucleotide exchange factor 4 (Homo sapiens) (UniProt Q8WZA2)
# Assay: qHTS for Antagonist of cAMP-regulated guanine nucleotide exchange factor 2 (EPAC2): primary screen; also: nearly all actives have a fitted effect of over 45% in size
# Settings: EPAC2 GEF exchange of Rap1B-BODIPY-GDP, fluorescence; at 114 µM (top of the series) unless noted
# Source text: In multi-cellular eukaryotic organisms, the effects of cAMP are transduced by two ubiquitously-expressed intracellular cAMP receptors, the classic protein kinase A/cAMP-dependent protein kinase (PKA/cAPK) and the more recently discovered exchange protein directly activated by cAMP/cAMP-regulated guanine nucleotide exchange factor (EPAC/cAMP-GEF). Both PKA and EPAC are ubiquitously expressed in all tissues, and an increase in intracellular cAMP levels will lead to the activation of both PKA and EPAC. Therefore, careful dissections of the individual role and relative contribution of EPAC and PKA within the overall cAMP signaling in various model systems are critical for further elucidating the mechanism of cAMP signaling. To date no EPAC-specific antagonists and agonist, as well as isoform-specific agonists have been reported, and developing EPAC-specific pharmacological probes to determine the physiological functions that EPAC play in the overall cAMP-mediated signaling remains a major challenge within the research field. Furthermore, identified regulators of EPAC may lead to new mechanism-based therapeutic strategies specifically targeting the EPAC / cAMP-signaling components as EPAC has been implicated to play important roles in major human pathological conditions such as diabetes, heart disease, and cancer.
# This qHTS will be used to screen the Molecular Libraries Small Molecule Repository (MLSMR) as a concentration-titration series using the NCGC unique quantitative screening (qHTS) platform to find inhibitors for EPAC2. In addition, this assay will also be used as a counterscreen for the EPAC1 qHTS. This fluorescent based assay is developed and validated for EPAC2 that measures exchange using EPAC effector Rap1 complex with BODIPY-GDP, a GDP analog with a tethered fluorophores. Inhibitors are identified by monitoring the change in fluorescence signal as the exchanged free BODIPY-GDP has a reduced fluorescence compared to Rap1-bound BODIPY-GDP. Decrease in signal (inhibition) is the desired outcome for the EPAC2 antagonist while no activity in this assay is desired for the EPAC1 antagonist counterscreen.
# NIH Chemical Genomics Center [NCGC]
# NIH Molecular Libraries Probe Centers Network [MLPCN]
# Assay Submitter (PI): Xiaodong Cheng, The University of Texas, Medical Branch
# Briefly, three uL of reagents (100 nM EPAC2, 250 nM RAP1B-BODIPY-GDP, 50 uM GDP) were dispensed into a 1536-well Greiner black solid-bottom medium binding assay plate. Controls and test compounds (23 nL) were transferred to the plate via a Kalypsys pin tool equipped with a 1536-pin array. The plates were centrifuged at 1,000 rpm for 15 seconds followed by 5 minute incubation at room temperature. The assay plates were read at 5 minute intervals for 30 minutes in the ViewLux plate reader using 480nm excitation and 540nm emission filters. The results were normalized to the agonist positive control ATA and DMSO.
# % is scaled to controls: 0 for no effect and ±100 for the full control effect.
row,SMILES,"activity, negative = inhibition"
1,CN1CCC(Nc2cccc(F)c2)CC1,inactive: 11%
2,COc1ccc2c(c1O)-c1c(O)c(OC)cc3c1[C@H](C2)[N+](C)(C)CC3.O=[N+]([O-])c1cc([N+](=O)[O-])c([O-])c([N+](=O)[O-])c1[O-],inactive: -2.95%
3,O=C(NCC1(N2CCCCC2)CCCCC1)c1cncc(Br)c1,inactive: 6.17%
4,O=C(OC1CN2CCC1CC2)c1ccc([N+](=O)[O-])cc1 (stereo not drawn),inactive: 3.64%
5,Cc1ccc(C(=O)NCC2(N(C)C)CCCCC2)o1,inactive: -15.3%
6,CCCOc1ccc(C(=O)NCC2(N(C)C)CCCCC2)cc1OC,inactive: 1.7%
7,O=[N+]([O-])c1cc([N+](=O)[O-])c(Nc2ccc(Cl)cc2)c([N+](=O)[O-])c1,inactive: -29%
8,COc1ccc(C(c2nnnn2C2CCCC2)N2CCC(n3c(=O)[nH]c4ccccc43)CC2)cc1 (stereo not drawn),inactive: -4.41%
9,COc1ccc(CN(CCCl)CCCl)cc1Cl,inactive: -7.49%
10,O=[N+]([O-])c1cc([N+](=O)[O-])c(OC2CCCCC2O)c([N+](=O)[O-])c1 (stereo not drawn),inactive: -4.19%
11,CN(C)c1cccc(C(=O)NCC2(N3CCCCC3)CCCCC2)c1,inactive: 12.1%
12,CCCCn1nnnc1C(c1ccccc1OC(F)(F)F)N1CCC(n2c(=O)[nH]c3ccccc32)CC1 (stereo not drawn),inactive: -24%
13,CC(C)c1ccc(NC2CCN(C(=O)OC(C)(C)C)CC2)cc1,inactive: -14.6%
14,CCCCn1nnnc1C(c1ccnc2ccccc12)N1CCC(n2c(=O)[nH]c3ccccc32)CC1 (stereo not drawn),inactive: -0.422%
15,COc1cc(OC)c(C(=O)NCC2(N(C)C)CCCCC2)cc1OC,inactive: -2.51%
16,O=C(NCC1(N2CCOCC2)CCCCC1)c1cc(F)c(F)cc1Cl,inactive: 2.05%
17,CCN(CC)CCCNc1ccccc1[N+](=O)[O-].O=[N+]([O-])c1cc([N+](=O)[O-])c(O)c([N+](=O)[O-])c1,inactive: -16%
18,O=C(NCC1(N2CCCCC2)CCCCC1)c1cccc(C(F)(F)F)c1,inactive: -3.98%
19,O=[N+]([O-])c1cc([N+](=O)[O-])c(NCC2CCS(=O)(=O)C2)c([N+](=O)[O-])c1 (stereo not drawn),inactive: 11.3%
20,CN1CCN(CCOC(=O)C(O)(c2ccccc2)c2ccccc2)CC1,inactive: -1.82%

row,SMILES,"activity, negative = inhibition"
1,CC(C)c1ccc(C(=O)NCC2(N3CCOCC3)CCCCC2)cc1,inactive: 10.5%
2,COc1ccc(NC2CCN(C(=O)OC(C)(C)C)CC2)cc1,inactive: 0.61%
3,CCCCn1nnnc1C(c1cccc2ccccc12)N1CCC(n2c(=O)[nH]c3ccccc32)CC1 (stereo not drawn),inactive: -11.8%
4,COc1cc(C(=O)NCC2(N3CCCCC3)CCCCC2)ccc1OC(F)F,inactive: -2.38%
5,O=C(NCC1(N2CCOCC2)CCCCC1)c1cc(=O)[nH]c2ccccc12,inactive: 1.83%
6,O=C(NCC1(N2CCCCC2)CCCCC1)c1ccc(OC(F)F)cc1,inactive: 3.07%
7,O=C(NCC1(N2CCCCC2)CCCCC1)c1cccc([N+](=O)[O-])c1,inactive: 4.56%
8,CSc1ccc(C(=O)NCC2(N3CCOCC3)CCCCC2)cc1,inactive: 5.66%
9,CCN1CCC(Nc2ccc(Cl)cc2)CC1,inactive: -9.07%
10,N#CC1(Nc2ccccc2)CCN(CCc2ccccc2)CC1,inactive: -1.38%
11,O=c1[nH]c2ccccc2n1C1CCN(C(c2ccccc2)c2nnnn2C2CCCCC2)CC1 (stereo not drawn),inactive: -4.83%
12,O=c1[nH]c2ccccc2n1C1CCN(C(c2cccc3ccccc23)c2nnnn2C2CCCC2)CC1 (stereo not drawn),inactive: -16.4%
13,CCOC(=O)N1CCC(Nc2cccc(C)c2)CC1,inactive: -2.47%
14,COc1cc(C(=O)NCC2(N(C)C)CCCCC2)ccc1OC(F)F,inactive: 3.64%
15,CCOc1ccc(C)cc1CN(CCCl)CCCl,inactive: 4.31%
16,CC(C)(C)n1nnnc1C(c1ccccc1)N1CCC(n2c(=O)[nH]c3ccccc32)CC1 (stereo not drawn),inactive: 0.0323%
17,O=C1CCN(Cc2ccccc2)CC1,inactive: 14.4%
18,O=P1(N(CCCl)CCCl)SCCCS1,inactive: 1.79%
19,CCCCOc1ccc(C(=O)NCC2(N3CCOCC3)CCCCC2)cc1,inactive: -6.65%
20,O=C(NCC1(N2CCCCC2)CCCCC1)c1ccc(F)cc1,inactive: 4.57%

row,SMILES,"activity, negative = inhibition"
1,COc1ccc(NC2CCN(CCc3ccccc3)CC2)c(OC)c1,inactive: -4.83%
2,CCOC(=O)N1CCC(Nc2ccc(F)cc2)CC1,inactive: 0.142%
3,O=C(NCC1(N2CCOCC2)CCCCC1)c1cc2ccccc2o1,inactive: -2.36%
4,O=C(NCC1(N2CCCCC2)CCCCC1)c1ccc(Cl)nc1,inactive: 19.6%
5,O=c1[nH]c2ccccc2n1C1CCN(C(c2ccccc2OC(F)(F)F)c2nnnn2C2CCCCC2)CC1 (stereo not drawn),inactive: -19%
6,Cc1cc(C)cc(N(C(=O)c2ccccc2)C2CCN(C(=O)OC(C)(C)C)CC2)c1,inactive: -14.4%
7,CCOC(=O)N1CCC(Nc2ccc(OC)cc2)CC1,inactive: 1.11% [at 57.1 µM]
8,CCCCn1nnnc1C(c1ccc(OC)cc1)N1CCC(n2c(=O)[nH]c3ccccc32)CC1 (stereo not drawn),inactive: -12.9%
9,O=C(NCC1(N2CCCCC2)CCCCC1)c1ccc(Cl)s1,inactive: -1.26%
10,N#CC1(Nc2ccccc2)CCN(Cc2ccccc2)CC1,inactive: 11.4%
11,O=C(OC1CN2CCC1CC2)C1c2ccccc2Oc2ccccc21 (stereo not drawn),inactive: 14.2%
12,O=c1[nH]c2ccccc2n1C1CCN(C(c2cc3ccccc3o2)c2nnnn2C2CCCCC2)CC1 (stereo not drawn),inactive: -18%
13,COc1ccc(Cl)cc1C(=O)NCC1(N2CCOCC2)CCCCC1,inactive: 13.8%
14,O=C1C(O)=C([N+](=O)[O-])C(=O)C(O)=C1[N+](=O)[O-],inactive: 11.1%
15,O=C(NCC1(N2CCCCC2)CCCCC1)c1ccc(=O)[nH]c1,inactive: 2.73%
16,O=C(NCC1(N2CCCCC2)CCCCC1)c1cccs1,inactive: -27.6%
17,CCCCn1nnnc1C(CC)N1CCC(n2c(=O)[nH]c3ccccc32)CC1 (stereo not drawn),inactive: 7.75%
18,CCCCn1nnnc1C(c1cccs1)N1CCC(n2c(=O)[nH]c3ccccc32)CC1 (stereo not drawn),inactive: -20.9%
